Results: patent US20220016092A1, “METHODS FOR TREATING SYMPTOMS AND DISORDERS ASSOCIATED WITH LYSOSOMAL STORAGE DISEASES” (GENZYME CORPORATION, priority 2019, published 2022)

What was measured:
Assay type in all cases: in vivo, human
[1] = Study 2: ascending repeated-dose pharmacokinetics in healthy volunteers; details: healthy adults; for CLss/F, Mean (SD): Day 14 (N = 9)
[2] = Study 1 Part 2: pharmacokinetics with and without a high-fat meal; details: healthy men, single oral 5 mg dose
Text: (§1) Study 1 was a 2-part single-center trial in healthy adult male volunteers. Part 1 was a double-blind, randomized, placebo-controlled sequential ascending single-dose study of Compound 2 for safety, tolerability, and PK. Part 2 was an open-label, single-cohort, randomized, 2-sequence, 2-period, 2-treatment crossover study of Compound 2 for PK with and without a high-fat meal.
(§2) Part 1 of the study enrolled and randomized 55 healthy men (placebo, n=14; 2-, 5-, 15, 25-, 50, and 100-mg doses, n=6 each; 150-mg dose, n=5). Eight healthy men participated in Part 2.
(§3) In Part 1 the subjects were randomized to receive 2, 5, 15, 25, 50, 100, or 150 mg of Compound 2 (L-malic salt form) or matching placebo on the morning of the first day after at least a 10-hour fast. In Part 2, the subjects were randomized to receive a single oral dose of 5 mg Compound 2 either while fasting (at least 10 hours before and 4 hours after administration) or 30 minutes after a standardized high-fat breakfast (˜815 kcal). After a 7-day washout period, participants were crossed over to the other condition.
In Study 1, Part 2, blood was sampled for plasma concentrations if Compound 2 at 0, 0.5, 1, 2, 3, 4, 5, 6, 8, 10, 12, 16, 24, and 48 hours post-dose.

[3] = Study 1 Part 1: ascending single-dose pharmacokinetics in healthy volunteers; details: healthy men, single oral doses 2 to 150 mg
Text: as §1, §2
as §3, with “After a 7-day washout period, participants were crossed over to the other condition.” left out
In Study 1, Part 1, blood was sampled for plasma concentrations of Compound 2 at the time of study drug administration (0 hour) and 0.5, 1, 2, 3, 4, 5, 6, 8, 10, 12, 16, 24, 48, 72, and 96 hours post-dose. Urine samples were collected for analysis of Compound 2 concentrations beginning 2 hours before study drug administration through 48 hours afterward.

Question: What does the source list for `CC(C)(NC(=O)O[C@@H]1CN2CCC1CC2)c1csc(-c2ccc(F)cc2)n1` [Compound 2, (S)-quinuclidin-3-yl 2-(2-(4-fluorophenyl)thiazol-4-yl)propan-2-ylcarbamate]?
Answer: CLss/F, Mean (SD) ([1]; 5 mg once daily): 5.98 (1.17) L/h; CLss/F, Mean (SD) ([1]; 10 mg once daily): 5.13 (1.25) L/h; CLss/F, Mean (SD) ([1]; 20 mg once daily): 6.58 (1.70) L/h; Fold increase in geometric mean AUC0-24 for a 4-fold dose increase ([1]; 5-20 mg once daily, Day 14): 3.69 fold; Fold increase in geometric mean Cmax for a 4-fold dose increase ([1]; 5-20 mg once daily, Day 14): 3.76 fold; Fold by which CLR(0-24) is lower than observed plasma CL/F ([1]; after 14 once-daily doses of 5, 10 or 20 mg): 3.18-3.86 fold; Fed/fasted geometric mean ratio, AUClast [2]: 0.91; Fed/fasted geometric mean ratio, Cmax [2]: 0.92; Fold increase in geometric mean AUCinf for a 75-fold dose increase [3]: 85.9 fold; Fold increase in geometric mean AUClast for a 75-fold dose increase [3]: 89.2 fold; Fold increase in geometric mean Cmax for a 75-fold dose increase [3]: 97.3 fold
